Measurements taken from patent US9428503B2, “Imidazo[4,5-c]quinolin-2-one compounds and their use in treating Cancer” (AstraZeneca AB, priority 2014, dated 2016).
Counter-ions that a name gives are not always drawn. Blank lines part the entries; values can stand above or below the molecule they belong to.

What was measured:
Format in all cases: cell-based
[1] = molecular target: ATR kinase (Homo sapiens (Human), UniProt Q13535); test: Assay b) ATR cellular potency assay (pChk1 Ser345 in HT29 cells treated with 4NQO); conditions: HT29 cells, pChk1 Ser345 after 4NQO; geometric mean where repeated; read-out: Assay b) ATR Cell IC50
[2] = molecular target: mTOR (Homo sapiens (Human), UniProt P42345); test: Assay d) mTOR cellular potency assay (phospho-AKT Ser473 in MDA-MB-468 cells); conditions: MDA-MB-468 cells, phospho-AKT Ser473, 2 h; geometric mean where repeated; read-out: Assay d) mTOR Cell IC50
[3] = molecular target: ATM kinase (Homo sapiens (Human), UniProt Q13315); test: Assay a) ATM cellular potency assay (pATM Ser1981 in X-ray irradiated HT29 cells); conditions: HT29 cells, pATM Ser1981 after X-ray irradiation; geometric mean where repeated; read-out: Assay a) ATM Cell IC50
[4] = molecular target: PI3K-α (Homo sapiens, UniProt P42336); test: Assay c) PI3K cellular potency assay (phospho-Akt T308 ELISA in BT474 cells); conditions: BT474 cells, phospho-Akt T308, 2 h; geometric mean where repeated; read-out: Assay c) PI3Kα Cell IC50

SMILES: CN(C)CCCOc1ccc(-c2ccc3ncc4c(c3c2)n(C2CCOCC2)c(=O)n4C)cn1 [Example 1, 8-[6-(3-Dimethylaminopropoxy)pyridin-3-yl]-3-methyl-1-(oxan-4-yl)imidazo[5,4-c]quinolin-2-one]
IC50 [1]: 6.16 µM
IC50 [2]: 0.61 µM

IC50 [3]: < 0.0525 nM
SMILES: CO[C@@H]1CC[C@@H](n2c(=O)n(C)c3cnc4ccc(-c5ccc(OCCCN6CCCC6)nc5)cc4c32)C1 [Example 67, 1-[(1R,3R)-3-methoxycyclopentyl]-3-methyl-8-[6-(3-pyrrolidin-1-ylpropoxy)-3-pyridyl]imidazo[4,5-c]quinolin-2-one]

IC50 [4]: > 16.7 µM
SMILES: Cn1c(=O)n([C@@H]2CCOC2)c2c3cc(-c4ccc(OCCCN5CCCCC5)nc4)ccc3ncc21 [Example 54, 3-methyl-8-[6-[3-(1-piperidyl)propoxy]-3-pyridyl]-1-[(3R)-tetrahydrofuran-3-yl]imidazo[4,5-c]quinolin-2-one methane sulfonic acid salt]
